Among the data in ChEMBL document CHEMBL5149991 (J Med Chem, 2021) are Emax values, retold here.

The chains behind the UniProt entries cited, without tags or fusion partners.
UniProt P47747, whole entry: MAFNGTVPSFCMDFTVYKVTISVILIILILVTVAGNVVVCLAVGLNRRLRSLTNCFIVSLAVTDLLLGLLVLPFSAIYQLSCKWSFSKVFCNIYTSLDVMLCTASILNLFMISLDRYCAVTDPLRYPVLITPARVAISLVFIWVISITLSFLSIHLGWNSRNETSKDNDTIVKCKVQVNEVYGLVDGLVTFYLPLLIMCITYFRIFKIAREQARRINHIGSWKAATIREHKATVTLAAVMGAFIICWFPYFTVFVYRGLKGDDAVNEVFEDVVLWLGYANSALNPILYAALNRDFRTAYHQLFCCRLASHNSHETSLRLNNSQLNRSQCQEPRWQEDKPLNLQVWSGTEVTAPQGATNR

Usually Emax stands for the size of the effect at its maximum, as opposed to the concentration needed.

The target of experiment [1] is Histamine H2 receptor (Cavia porcellus) (UniProt P47747). Nature of the experiment: Agonist activity at histamine H2 receptor in spontaneous beating guinea pig right atrium assessed as increase in heart beat at 30 uM relative to histamine. Format: functional, tissue-based. The settings on record: Right cardiac atrium.
For experiment [2] the target is unchanged. The experiment is described as follows: Agonist activity at guinea pig histamine H2 receptor stably transfected in HEK293T cells co-expressing NlucN-mGs/gpH2R-NlucC assessed as maximum efficacy at 100 uM by mini-G protein recruitment assay relative to histamine. Format: functional, cell-based.

For the compound `CCCCCNC(=O)/N=C(\N)NCCCc1nnc(N)s1.O=C(O)C(F)(F)F.O=C(O)C(F)(F)F`, the Emax in experiment [1] amounted to 109%; in experiment [2] it was 94%.
For `Cc1ccc(CC(C)CNC(=O)/N=C(\N)NCCCc2nnc(N)s2)cc1.O=C(O)C(F)(F)F.O=C(O)C(F)(F)F` (centres undefined), in that order: 102% and 92%.
